For 4 compounds, IC50 results are on record in patent US7514452B2, “2-furancarboxylic acid hydrazides and pharmaceutical compositions containing the same” (Dainippon Pharmaceutical Co., Ltd, priority 2002, dated 2009).

Amino acid sequences for entries named in this document (tags omitted). Residues count along the entry.
UniProt Q61606, 27-485 limits assumed: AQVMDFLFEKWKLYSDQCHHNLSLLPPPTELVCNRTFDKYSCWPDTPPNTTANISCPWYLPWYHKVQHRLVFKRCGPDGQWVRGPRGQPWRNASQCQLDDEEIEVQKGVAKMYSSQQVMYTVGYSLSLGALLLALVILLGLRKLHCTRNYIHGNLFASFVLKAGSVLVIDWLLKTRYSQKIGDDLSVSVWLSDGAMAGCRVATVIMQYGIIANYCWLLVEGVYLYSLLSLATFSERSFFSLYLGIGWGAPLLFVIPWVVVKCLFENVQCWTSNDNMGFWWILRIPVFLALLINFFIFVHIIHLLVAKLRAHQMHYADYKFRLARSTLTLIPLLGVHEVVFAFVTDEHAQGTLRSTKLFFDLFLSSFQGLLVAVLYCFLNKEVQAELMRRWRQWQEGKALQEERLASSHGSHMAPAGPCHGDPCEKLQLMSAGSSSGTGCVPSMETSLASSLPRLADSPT
UniProt P30082, 27-485 limits assumed: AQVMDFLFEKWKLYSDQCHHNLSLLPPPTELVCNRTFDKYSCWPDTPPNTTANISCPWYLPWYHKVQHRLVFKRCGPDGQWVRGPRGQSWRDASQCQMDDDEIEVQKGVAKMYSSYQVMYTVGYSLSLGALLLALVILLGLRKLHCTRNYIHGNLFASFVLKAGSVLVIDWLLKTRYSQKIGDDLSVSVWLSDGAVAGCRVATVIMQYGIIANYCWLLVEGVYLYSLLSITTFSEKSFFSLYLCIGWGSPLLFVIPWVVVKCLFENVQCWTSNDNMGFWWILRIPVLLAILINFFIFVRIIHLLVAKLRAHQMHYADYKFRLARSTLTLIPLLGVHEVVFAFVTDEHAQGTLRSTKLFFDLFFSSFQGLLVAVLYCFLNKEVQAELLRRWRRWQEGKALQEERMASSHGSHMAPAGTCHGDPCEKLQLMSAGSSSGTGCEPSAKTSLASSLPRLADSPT

Assay [1] has as its target glucagon receptor (Mus musculus, UniProt Q61606). As to the kind of experiment: Experiment for glucagon binding inhibition, mouse hepatic membrane (125I-glucagon). The conditions noted are these: read-out: Glucagon binding inhibitory activity IC50 (nM) Mouse; male ddY mouse hepatic membrane, 125I-glucagon 50 pM, 25° C. for 30 minutes. As to the method: (§1) The preparation of membrane from mouse and rat livers was carried out according to the method described in Bioorg. Med. Chem. Lett. 1992, 12, 915-918 in this experiment and ^125I-glucagon binding activity was measured with these membranes as glucagon receptor's samples. Livers were removed from male SD rats (about 250 g body weight per rat) and male ddY mice (about 30 g body weight per mouse). […] The homogenate was centrifuged for 15 minutes at 30,000×g. […] The precipitaion thus obtained was used as a hepatic membrane sample. […] The mixture was incubated at 25° C. for 30 minutes. […] The filter was washed 3 times with 50 mM Tris-HCl buffer (pH 7.2), and the radioactivity of the filter was measured by a γ counter (ARC-360, Aloka Co., Ltd.). […] Each experiment was carried out in duplicate. […] The concentration at 50% inhibition of binding (IC50) was calculated using a pseudo Hill plot.

For assay [2], the target named is glucagon receptor (Rattus norvegicus, UniProt P30082). As to the kind of experiment: Experiment for glucagon binding inhibition, rat hepatic membrane (125I-glucagon). The conditions noted are these: read-out: Glucagon binding inhibitory activity IC50 (nM) Rat; male SD rat hepatic membrane, 125I-glucagon 50 pM, 25° C. for 30 minutes. As to the method: as §1

In general, IC50 refers to the midpoint of a concentration-inhibition curve.

`O=C(NNC(=O)c1occc1-c1cccc(C2CCCCC2)c1)c1ccc(O)c([N+](=O)[O-])c1`: the IC50 on glucagon receptor [1] was determined as 55 nM; on glucagon receptor [2] it was 24 nM.

Consider `C=C(c1ccccc1)c1cccc(-c2ccoc2C(=O)NNC(=O)c2ccc(O)c([N+](=O)[O-])c2)c1`, for which the IC50 turned out to be 210 nM at glucagon receptor [1] and 160 nM on glucagon receptor [2].

Turning to `CC(C)Cc1cccc(-c2ccoc2C(=O)NNC(=O)c2ccc(O)c([N+](=O)[O-])c2)c1`, the IC50 at glucagon receptor [1] and at glucagon receptor [2] was 110 nM throughout.

For the compound `CCCCCCOc1ccc(-c2ccoc2C(=O)NNC(=O)c2ccc(O)c([N+](=O)[O-])c2)cc1`, the IC50 at glucagon receptor [1] was determined as 20 nM; on glucagon receptor [2] it was 15 nM.
